Reference: ChEMBL document CHEMBL1151070, “Synthesis and PKC inhibitory activities of balanol analogs with a cyclopentane substructure” (Bioorg Med Chem Lett, 1995)

Biological target: T1, Protein kinase C epsilon type (Homo sapiens, UniProt Q02156)
T1 sequence (Q02156 whole entry): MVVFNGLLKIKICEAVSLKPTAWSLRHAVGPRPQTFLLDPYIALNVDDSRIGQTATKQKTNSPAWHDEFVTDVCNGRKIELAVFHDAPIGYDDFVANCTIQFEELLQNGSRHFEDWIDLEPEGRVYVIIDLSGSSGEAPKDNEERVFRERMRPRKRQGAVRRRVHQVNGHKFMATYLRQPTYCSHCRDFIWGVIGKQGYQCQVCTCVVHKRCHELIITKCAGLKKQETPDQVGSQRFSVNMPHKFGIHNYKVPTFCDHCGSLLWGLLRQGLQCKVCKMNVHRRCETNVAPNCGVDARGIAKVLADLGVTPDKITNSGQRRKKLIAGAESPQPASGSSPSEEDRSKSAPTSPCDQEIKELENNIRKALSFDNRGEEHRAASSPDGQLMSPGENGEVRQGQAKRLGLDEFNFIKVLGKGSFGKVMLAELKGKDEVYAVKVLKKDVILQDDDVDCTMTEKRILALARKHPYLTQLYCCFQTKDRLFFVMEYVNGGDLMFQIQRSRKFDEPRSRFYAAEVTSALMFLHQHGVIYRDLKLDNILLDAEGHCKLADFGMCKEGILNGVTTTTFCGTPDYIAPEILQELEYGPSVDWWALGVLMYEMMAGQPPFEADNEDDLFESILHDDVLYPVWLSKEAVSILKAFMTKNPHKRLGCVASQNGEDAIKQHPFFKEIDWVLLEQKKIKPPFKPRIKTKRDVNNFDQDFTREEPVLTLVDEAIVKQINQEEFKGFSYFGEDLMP
Assay: Inhibition of Protein kinase C epsilon

IC50: 0.05 µM
Compound: O=C(N[C@@H]1CNCCC[C@H]1OC(=O)c1cc(O)c(C(=O)c2c(O)cccc2C(=O)O)c(O)c1)c1ccc(O)cc1 (racemic) [BALANOL]
